These results are taken from paper PMC3485190, “Crystal Structures of Lysine-Preferred Racemases, the Non-Antibiotic Selectable Markers for Transgenic Plants” (PLoS ONE, 2012).

For one data set, the system named is N=C(N)NCCC[C@H](N)C(=O)O. The data set is described as follows: purified protein. Conditions: 100 mM CHES-NaOH pH 9.0, 30 µM PLP, 50°C.
The test system of a further data set is NCCCC[C@H](N)C(=O)O. As to the kind of experiment: purified protein. Conditions: 100 mM CHES-NaOH pH 9.0, 30 µM PLP, 50°C.

As a reminder, the Km is the substrate concentration at which the rate is half of its maximum. The kcat/Km is the turnover number divided by the Michaelis constant. Usually kcat stands for the number of substrate molecules converted per active site and unit of time at saturation. For the substance “Lyr (lysine racemase) (Proteus mirabilis; S394Y/T391Y)”, in the data set on N=C(N)NCCC[C@H](N)C(=O)O, the Km is 75.5 ± 6.2 mM and the kcat/Km worked out at 5 M⁻¹ s⁻¹. Moreover, in the data set with NCCCC[C@H](N)C(=O)O, the Km is 34.3 ± 4.1 mM and the kcat is 2.57 s⁻¹.

For “Lyr (lysine racemase) (Proteus mirabilis; T391Y)”, in the data set with N=C(N)NCCC[C@H](N)C(=O)O, the Km turned out to be 47.7 ± 1.7 mM, the kcat worked out at 10.2 s⁻¹ and the specificity constant (kcat/Km) was determined as 213 M⁻¹ s⁻¹. In the data set on NCCCC[C@H](N)C(=O)O, the Michaelis constant (Km) worked out at 37.6 ± 5.3 mM, the kcat amounted to 23.1 s⁻¹ and the kcat/Km was found to be 613 M⁻¹ s⁻¹.
